The assay concerns GLP-1 receptor. The assay can be described thus: Evaluation of agonistic activity on GLP-1 receptor (CRE-luciferase reporter in HEK293 cells). Type of assay: cell-based. To be noted: HEK293 cells stably expressing CRE-luciferase reporter system; cellular level. The source says: GLP-1 receptor is a Gs-coupled GPCR. CRE-luciferase reporter system was stably expressed in human embryonic kidney epithelial cell line HEK293 used for evaluation. Therefore, once the receptor was activated, the enhancement of intracellular concentration of the second messenger cAMP through Gs signal pathway would initiate the expression of the luciferase gene in the reporter system. The ability of the test compounds to stimulate and activate GLP-1 receptor was reflected by the detected expression level of the luciferase reporter gene.
Background: In a reporter assay the amount or activity of a reporter protein is the signal.

Consider “[Cys^37(mPEG5000-MAL)]Exendin-4 [Compound 6]”, for which the EC50 – broadly, the concentration that produces a half-maximal response – is 1.76 nM.

(Values after patent publication US9260534B2, “Site-directed PEG-modified exendin-4 analogs and uses thereof” (priority 2010, dated 2016).)
